The values that follow come from publication PMC7044277 (Nature Communications, 2020).

The target in assay [1] is T1, DRD4 L1113.28F (Homo sapiens, UniProt P21917, L111F).
T1 sequence (P21917 1-419 L111F): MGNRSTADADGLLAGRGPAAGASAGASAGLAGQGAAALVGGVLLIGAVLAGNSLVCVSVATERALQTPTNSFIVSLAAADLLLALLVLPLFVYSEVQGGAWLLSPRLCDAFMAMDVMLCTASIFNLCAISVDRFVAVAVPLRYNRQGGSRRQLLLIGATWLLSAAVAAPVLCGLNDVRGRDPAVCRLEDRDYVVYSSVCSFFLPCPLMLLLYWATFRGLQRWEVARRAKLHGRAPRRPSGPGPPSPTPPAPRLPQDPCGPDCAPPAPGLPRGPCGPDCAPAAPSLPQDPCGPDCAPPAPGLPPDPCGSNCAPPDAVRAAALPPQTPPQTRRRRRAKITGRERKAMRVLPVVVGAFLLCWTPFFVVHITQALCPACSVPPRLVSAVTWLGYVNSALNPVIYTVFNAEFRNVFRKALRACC
Description: biochemical.

The target of assay [2] is T1, DRD4 L1113.28F.

Take `OC1(c2ccc(Cl)cc2)CCN(Cc2c[nH]c3ccccc23)CC1` [L-741626]: in assay [1], the affinity, expressed as Ki, was 347 nM. The “ΔpKi (mutant-WT)” value in assay [2] (DRD4 L1113.28F vs DRD4 wild-type) is given as -0.31. The “binding affinity decreased, mutant vs wild type” value in assay [2] (DRD4 Leu111^3.28Phe vs wild-type DRD4) is 2.04 fold.

By Ki is commonly meant a measure of affinity in units of concentration, obtained from inhibition or displacement. A low value points to higher affinity.
